{"sequences": {"note": "The chains behind the UniProt entries cited, without tags or fusion partners. Where a name states a change or a piece, a line headed by the entry shows the natural chain unless it says otherwise.", "UniProt P20594": "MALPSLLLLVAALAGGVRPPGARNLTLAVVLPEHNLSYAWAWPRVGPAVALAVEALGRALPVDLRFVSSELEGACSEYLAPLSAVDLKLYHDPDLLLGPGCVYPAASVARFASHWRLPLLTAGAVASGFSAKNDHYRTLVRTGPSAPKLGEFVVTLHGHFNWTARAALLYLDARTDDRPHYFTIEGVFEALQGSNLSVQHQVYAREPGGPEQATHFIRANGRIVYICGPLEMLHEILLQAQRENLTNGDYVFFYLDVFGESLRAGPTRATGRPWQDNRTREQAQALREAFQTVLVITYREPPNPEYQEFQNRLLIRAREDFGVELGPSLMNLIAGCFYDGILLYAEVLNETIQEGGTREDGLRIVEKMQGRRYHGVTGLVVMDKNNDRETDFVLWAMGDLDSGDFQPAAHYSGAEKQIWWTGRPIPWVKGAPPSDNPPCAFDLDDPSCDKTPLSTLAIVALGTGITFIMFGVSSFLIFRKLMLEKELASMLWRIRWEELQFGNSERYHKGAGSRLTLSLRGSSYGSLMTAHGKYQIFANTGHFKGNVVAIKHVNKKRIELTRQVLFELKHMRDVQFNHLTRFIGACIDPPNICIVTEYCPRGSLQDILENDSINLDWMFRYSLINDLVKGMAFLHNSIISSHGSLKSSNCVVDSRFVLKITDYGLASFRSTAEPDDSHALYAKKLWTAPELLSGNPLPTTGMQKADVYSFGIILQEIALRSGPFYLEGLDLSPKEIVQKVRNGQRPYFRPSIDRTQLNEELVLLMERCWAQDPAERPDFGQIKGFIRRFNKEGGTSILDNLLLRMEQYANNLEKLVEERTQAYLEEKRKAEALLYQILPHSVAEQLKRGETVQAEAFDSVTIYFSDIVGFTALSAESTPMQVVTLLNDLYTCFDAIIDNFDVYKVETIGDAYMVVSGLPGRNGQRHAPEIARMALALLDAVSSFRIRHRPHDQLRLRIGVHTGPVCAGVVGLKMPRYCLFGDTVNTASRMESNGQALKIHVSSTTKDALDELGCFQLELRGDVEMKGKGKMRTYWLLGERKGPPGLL"}, "source": "PubChem BioAssay AID1920062", "about": "(Sanford-Burnham Center for Chemical Genomics, 2024)", "note": "The entries are a selection whose mix differs from that of the whole data set. Active and inactive are the calls of the source.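 The calls were made as follows: active = activation at 10 µM reaching about 35% in either raw or pattern-adjusted values (limit read from the data); inactive = the rest.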", "data": [{"target": "Atrial natriuretic peptide receptor 2 (Homo sapiens) (UniProt P20594)", "assay": "human GC-B receptor activators, primary screen, HEK293 GC-B cells, cGMP TR-FRET, EC30 CNP (AID 1920062)", "settings": "at 10 µM, active compounds read high, 0% at EC30 CNP, 100% saturating CNP", "values": [{"smiles": "O=C(OC1CN2CCC1CC2)c1cccc([N+](=O)[O-])c1", "note": "(stereo not given)", "activation": "inactive: 0.12%"}, {"smiles": "CCOC(=O)c1ccc(NC(=O)C(C)(CCl)SC)cc1", "note": "(stereo not given)", "activation": "inactive: 3.08%"}, {"smiles": "O=C(O)C(=O)c1ccc(N(CCCl)CCCl)cc1", "activation": "inactive: -0.2%"}, {"smiles": "O=C(Nc1ccncc1[N+](=O)[O-])c1ccc([N+](=O)[O-])cc1[N+](=O)[O-]", "activation": "inactive: 3.89%"}, {"smiles": "O=C(COc1ccccc1)OC1CN2CCC1CC2", "note": "(stereo not given)", "activation": "inactive: -0.56%"}, {"smiles": "COC(=O)C1(C)COP(=O)(N2CCCC2)OC1", "note": "(stereo not given)", "activation": "inactive: 3.55%"}, {"smiles": "COP1(=S)c2c(C)nn(CCC#N)c2N=C(c2ccc(F)cc2)N1C", "note": "(stereo not given)", "activation": "inactive: 5.85%"}, {"smiles": "CN(C(=O)Cc1ccc(Cl)c(Cl)c1)C1CCCC[C@@H]1N1CCCC1", "note": "(stereo not given in full)", "activation": "inactive: -7.1%"}, {"smiles": "CC(C)/C=N\\N=C(\\N)N[N+](=O)[O-]", "activation": "inactive: 4.13%"}, {"smiles": "CN(C(=O)Cc1ccc(Cl)c(Cl)c1)[C@@H]1CCCC[C@H]1N1CCCC1", "activation": "inactive: 2.18%"}, {"smiles": "CC1(CBr)Cn2c(nc3ccccc3c2=O)S1", "note": "(stereo not given)", "activation": "inactive: -0.83%"}, {"smiles": "COc1ccccc1CNC(=O)COC(=O)C(O)(c1ccccc1)c1ccccc1", "activation": "inactive: 1.43%"}, {"smiles": "CC(C)(C)C(=O)NC(Sc1ncccn1)C(Cl)(Cl)Cl", "note": "(stereo not given)", "activation": "inactive: -1.12%"}, {"smiles": "O=P1(N(CCCl)CCCl)NCCC(C(F)(F)F)O1", "note": "(stereo not given)", "activation": "inactive: 3.88%"}, {"smiles": "Clc1n[nH]nc1-c1nn[nH][15n]1", "activation": "inactive: -1.82%"}, {"smiles": "CCOP(=O)(NC(=NC(C)c1ccccc1)NC(C)c1ccccc1)OCC", "note": "(stereo not given)", "activation": "inactive: -5.3%"}, {"smiles": "O=P1(Nc2ccccn2)COc2ccccc2OC1", "activation": "inactive: -0.87%"}, {"smiles": "CCC1=CC2Cc3nc4ccc(Cl)cc4c(N)c3C(C1)C2", "note": "(stereo not given)", "activation": "inactive: -29.8%"}, {"smiles": "CN(CCCl)Cc1cc(Cl)c(NC2=NCCN2)c(Cl)c1", "activation": "inactive: 4.83%"}, {"smiles": "CCOP(=O)(Nc1ccc(C)cn1)OCC", "activation": "inactive: 1.54%"}, {"smiles": "Nc1cccc([As](=O)(O)c2ccccc2)c1", "activation": "inactive: -1.25%"}, {"smiles": "O=P1(Nc2ccc(Br)cn2)COc2ccccc2OC1", "activation": "inactive: -1.2%"}, {"smiles": "NS(=O)(=O)c1cccc(NC(=O)COC(=O)C(O)(c2ccccc2)c2ccccc2)c1", "activation": "inactive: 3.02%"}, {"smiles": "O=[As](O)(c1cccs1)c1cccs1", "activation": "inactive: -2.23%"}, {"smiles": "Cc1ccc(OCC(=O)OC2CN3CCC2CC3)cc1", "note": "(stereo not given)", "activation": "inactive: 0.5%"}, {"smiles": "Cc1ccc(S(=O)(=O)N(CCCN)CCCc2c(C)nc(N)[nH]c2=O)cc1", "activation": "inactive: -0.51%"}, {"smiles": "O=P1(Nc2ncccn2)COc2ccccc2OC1", "activation": "inactive: -1.5%"}, {"smiles": "CN(C)C1(CNC(=O)c2ccc(S(C)(=O)=O)cc2)CCCCC1", "activation": "inactive: 2.03%"}, {"smiles": "CCCC1OP(=O)(Nc2ccccc2)OCC1CC", "note": "(stereo not given)", "activation": "inactive: 1.11%"}, {"smiles": "O=C(/C=C/c1ccccc1)OC1CN2CCC1CC2", "note": "(stereo not given)", "activation": "inactive: -0.18%"}, {"smiles": "CC1CCC(C(C)C)C(OP(=O)(Nc2ccccn2)c2ccccc2)C1", "note": "(stereo not given)", "activation": "inactive: -10.7%"}, {"smiles": "Cc1ccc(C(=O)OC2CN3CCC2CC3)cc1", "note": "(stereo not given)", "activation": "inactive: -10.9%"}, {"smiles": "Cc1nn(-c2ccccc2)c2c1P(=O)(N1CCOCC1)N(C)C(c1ccccc1)=N2", "note": "(stereo not given)", "activation": "inactive: -0.38%"}, {"smiles": "CN(C(=O)Cc1ccccc1)[C@@H]1CC[C@]2(CCCO2)C[C@H]1N1CCCC1", "activation": "inactive: 1.64%"}, {"smiles": "CCOP1(=S)c2c(C)nn(CCC#N)c2N=C(c2ccc(F)cc2)N1C", "note": "(stereo not given)", "activation": "inactive: -1.77%"}, {"smiles": "N#CCCN(C(=O)COC(=O)C(O)(c1ccccc1)c1ccccc1)c1ccc(F)cc1", "activation": "inactive: -0.55%"}, {"smiles": "CN(C(=O)Cc1ccc(Cl)c(Cl)c1)[C@H]1CC[C@@]2(CCCO2)C[C@@H]1N1CCCC1", "activation": "inactive: 1.04%"}, {"smiles": "CN(C)C(=O)c1cc([N+](=O)[O-])cc2c1-c1c(cc([N+](=O)[O-])cc1[N+](=O)[O-])C2=O", "activation": "inactive: -19.7%"}, {"smiles": "O=[N+]([O-])c1ccc2c(c1)nnn2O", "activation": "inactive: -2.01%"}, {"smiles": "NC(=O)Nc1ccc([As](=O)(O)O)cc1", "activation": "inactive: 2.32%"}, {"smiles": "Nc1ccccc1[As](=O)(O)c1ccccc1", "activation": "inactive: 1.92%"}, {"smiles": "O=C(O)COc1ccc([As](=O)(O)O)cc1[N+](=O)[O-]", "activation": "inactive: 0%"}, {"smiles": "O=P(Nc1nccs1)(Oc1ccccc1)Oc1ccccc1", "activation": "inactive: -5.51%"}, {"smiles": "CCOP1(=S)c2c(C)nn(CCC#N)c2N=C(c2ccccc2F)N1C", "note": "(stereo not given)", "activation": "inactive: -5.64%"}, {"smiles": "CCOP(=O)(Nc1cccc2ccccc12)OCC", "activation": "inactive: -2.31%"}, {"smiles": "COc1cc(C2NCCC3(OCCO3)C2(C)C)cc(OC)c1OC", "note": "(stereo not given)", "activation": "inactive: 1.1%"}, {"smiles": "Nc1cccc2c([As](=O)(O)O)cccc12", "activation": "inactive: -1.34%"}, {"smiles": "Cc1ccc(NCCc2c([N+](=O)[O-])cc([N+](=O)[O-])cc2[N+](=O)[O-])cc1", "activation": "inactive: -5.99%"}, {"smiles": "CCCOP(=S)(Nc1nc(N)cc(=O)[nH]1)OCCC", "activation": "inactive: 6.79%"}, {"smiles": "O=[As](O)(c1cccc(O)c1)c1cccc(O)c1", "activation": "inactive: 0.63%"}, {"smiles": "Cc1cccc(OCC(=O)OC2CN3CCC2CC3)c1", "note": "(stereo not given)", "activation": "inactive: -5.27%"}, {"smiles": "O=C(OC1CN2CCC1CC2)c1ccc(Cl)cc1", "note": "(stereo not given)", "activation": "inactive: -0.77%"}, {"smiles": "CS(=O)(=O)c1ccc(Cl)c(NC(=O)COC(=O)C(O)(c2ccccc2)c2ccccc2)c1", "activation": "inactive: 0.92%"}, {"smiles": "COc1cc(C(=O)NCC2(N3CCOCC3)CCCCC2)cc(Cl)c1OC(C)C", "activation": "inactive: 0.25%"}, {"smiles": "O=[As](O)(O)c1cccnc1", "activation": "inactive: -5.63%"}]}]}
